Values quoted from earlier work, collected in patent US8093043B2, “β-TrCP1, β-TrCP2 and RSK1 or RSK2 inhibitors and methods for sensitizing target cells to apoptosis” (New York University, priority 2008, dated 2012).

Key:
[1] = system: NSCLCs with EGFR mutations; conditions: initially; cited from earlier work
HCC827 cells = conditions: EGFR mutant NSCLC; cited from earlier work

**Q.** For COc1cc2ncnc(Nc3ccc(F)c(Cl)c3)c2cc1OCCCN1CCOCC1 [gefitinib], which apoptotic response [1] is on record?
**A.** trigger a BimEL-dependent apoptotic response

**Q.** What about the sensitivity to gefitinib (HCC827 cells) of the same compound?
**A.** sensitive
